Test system: crises pentétrazoliques
Experiment: Convulsant and lethal effects of subcutaneous pentetrazol (125 mg/kg)
Assay type: in vivo
Conditions: index thérapeutique absolu, souris
Text: Propriétés anticonvulsivantes : • On a effectué, pour déterminer ces propriétés anticonvulsivantes, des expérimentations sur le SCS 289 en procédant à des essais de protection : • - chez le lapin soumis à une transélectrification cranienne génératrice de crises épileptiformes de type "grand mal" ou recevant une infusion veineuse de pentétrazol provoquant l'apparition de myoclonies palpébrales; • - chez la souris recevant, par voie sous-cutanée des doses croissantes de pentétrazol entraînant convulsions et mort ou soumise à une transélectrification transcranienne à basse fréquence génératrice de crises psychomotrices.
Pour déceler une synergie d'action antagoniste vis-à-vis des effets convulsivants et létaux du pentétrazol injecté par voie sous-cutanée chez la souris à la dose de 125 mg/kg, on a déterminé avec plus de précision la DE50 du SCS 289 et on a recherché si l'association avec le SCS 35 apportait un surcroit appréciable d'activité.
On n'a retenu comme significative que la protection à l'égard des effets létaux observés sur 24 heures.

SMILES: CCCC(CCC)C(=O)O [Valproate de sodium]
- DL50/DE50 /pentétrazol: 6,9

— patent EP0187057A1, “2-Phenyl-isopropyl-allophanate, preparation and pharmaceutical application” (priority 1984, dated 1986)
